Experimental data reported in patent US20140142128A1, “METHODS OF TREATING A DISEASE OR DISORDER ASSOCIATED WITH BRUTON'S TYROSINE KINASE” (Celgene Avilomics Research, Inc., priority 2012, published 2014).

System: related kinases
Assay: Selectivity in cellular assay systems
Assay type: cell-based

## C=CC(=O)Nc1cccc(Nc2nc(Nc3ccc(OCCOC)cc3)ncc2F)c1 [Compound 1, N-(3-(5-fluoro-2-(4-(2-methoxyethoxy)phenylamino)pyrimidin-4-ylamino)phenyl)acrylamide]
  Selectivity against related kinases: high degree of selectivity
